The values that follow come from publication PMC9127750, “Structure-based design of CDC42 effector interaction inhibitors for the treatment of cancer” (Cell reports, 2022).

The test system of data set [1] is U118MG. Nature of the data set: cells. The following applies: Homo sapiens, U-118-MG, read-out: IC50 ARN22089.
Data set [2] is described as follows: In vitro microsomal stability assay. The data set is classed as in vitro ADME. The following applies: pH 7.4; rat liver microsomes; read-out: half-life after incubation with rat microsomes. As for the experimental part:
10 mM DMSO stock solution of each compound was pre-incubated at 37°C for 15 min with liver microsomes from all the three species (mouse, rat, human) in 0.1M Tris-HCl buffer (pH 7.4). The final concentration was 4.6 μM. After pre-incubation, the co-factors (NADPH, G6P, G6PDH and MgCl2 pre-dissolved in 0.1M Tris-HCl) were added to the mixture and the incubation was continued at 37°C for 1 h. […] The supernatant was then further diluted with H2O (1:1) for analysis. […] The percentage of test compound remaining at each time point relative to the amount observed at t = 0 was calculated. The half-lives (t½) were determined by a one-phase decay equation using a non-linear regression of compound concentration versus time.

pIC50: −log10 of the molar value.

As usually defined, the pIC50 is the IC50 on a negative log10 scale, so that one unit is a factor of ten. A word on the half-life: it is the time needed for the level to fall by half in the phase considered. For `CN(C)c1cccc(Nc2cc(-c3ccccc3)nc(C3CCNCC3)n2)c1` [ARN22089, N1,N1-dimethyl-N3-(6-phenyl-2-(piperidin-4-yl)pyrimidin-4-yl)benzene-1,3-diamine], the pIC50 in data set [1] is 5.06. For the same molecule, the half-life at […] in data set [2] is 1.78 h.
